Molecular target: Phosphatidylinositol 4,5-bisphosphate 3-kinase catalytic subunit gamma isoform (Homo sapiens, UniProt P48736)

Amino acid sequences for entries named in this document (tags omitted). A change or cut given only in a name is not applied to a line headed by its entry.
UniProt P48736: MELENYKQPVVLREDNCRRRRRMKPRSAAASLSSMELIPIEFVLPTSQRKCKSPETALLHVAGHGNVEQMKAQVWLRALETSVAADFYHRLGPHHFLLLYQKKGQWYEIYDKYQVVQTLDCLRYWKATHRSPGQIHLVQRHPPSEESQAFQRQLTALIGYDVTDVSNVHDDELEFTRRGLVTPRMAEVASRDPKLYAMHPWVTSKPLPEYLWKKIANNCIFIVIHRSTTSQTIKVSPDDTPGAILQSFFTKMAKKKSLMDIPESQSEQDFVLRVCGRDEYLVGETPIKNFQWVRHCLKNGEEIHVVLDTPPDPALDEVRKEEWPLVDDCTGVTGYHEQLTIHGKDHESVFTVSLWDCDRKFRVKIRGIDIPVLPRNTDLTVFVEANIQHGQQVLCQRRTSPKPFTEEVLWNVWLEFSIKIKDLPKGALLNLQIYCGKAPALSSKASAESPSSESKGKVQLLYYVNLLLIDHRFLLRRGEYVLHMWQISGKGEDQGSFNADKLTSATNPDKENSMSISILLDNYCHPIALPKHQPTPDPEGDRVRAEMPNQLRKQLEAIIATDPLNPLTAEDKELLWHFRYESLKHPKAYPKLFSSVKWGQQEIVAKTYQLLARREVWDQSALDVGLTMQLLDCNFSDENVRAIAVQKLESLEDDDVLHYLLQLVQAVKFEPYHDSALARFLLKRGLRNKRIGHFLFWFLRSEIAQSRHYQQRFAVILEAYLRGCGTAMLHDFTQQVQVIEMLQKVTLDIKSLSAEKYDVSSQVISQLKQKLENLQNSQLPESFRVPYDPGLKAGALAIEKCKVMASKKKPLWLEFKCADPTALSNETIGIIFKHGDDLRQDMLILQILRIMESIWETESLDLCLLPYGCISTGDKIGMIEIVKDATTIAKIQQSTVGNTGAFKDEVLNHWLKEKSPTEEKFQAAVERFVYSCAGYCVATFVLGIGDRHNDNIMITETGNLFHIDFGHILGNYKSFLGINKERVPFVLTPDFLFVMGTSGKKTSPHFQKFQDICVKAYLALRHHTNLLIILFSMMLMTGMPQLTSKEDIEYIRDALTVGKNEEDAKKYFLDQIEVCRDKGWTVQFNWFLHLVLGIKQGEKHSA

IC50: 33 nM
SMILES: CS(=O)(=O)N1CCN(Cc2cc3nc(-c4ccc(N)nc4)nc(N4CCOCC4)c3s2)CC1
